Assay results reported in patent US20070065520A1, “Mri contrast medium composition for oral administration” (priority 2003, published 2007).
Read-outs that look alike come from different tables or passages of the source.

Columns and labels:
[1] = not given; remark: listed apart in the source
[2] = not given; remark: listed apart in the source

Substance: manganese chloride [MnCl2]
- Liver Mean Mn (Ex. 2 Group 2: 100 μmol/kg MnCl2 only, oral gavage, liver 3 h after dose): 63.4 nmol/g
- Liver Mean Mn (Ex. 2 Group 3: 100 μmol/kg MnCl2 + 150 μmol/kg alanine + 20 IU/kg vitamin D3, Mn:Ala 1:1.5, oral, 3 h): 69.9 nmol/g
- Liver Mean Mn (Ex. 2 Group 4: 100 μmol/kg MnCl2 + 150 μmol/kg alanine + 10 IU/kg vitamin D3, Mn:Ala 1:1.5, oral, 3 h): 72.7 nmol/g
- Liver Mean Mn (Ex. 2 Group 5: 100 μmol/kg MnCl2 + 150 μmol/kg alanine + 5 IU/kg vitamin D3, Mn:Ala 1:1.5, oral, 3 h): 68.4 nmol/g
- Liver Mean Mn (Ex. 2 Group 6: 100 μmol/kg MnCl2 + 75 μmol/kg alanine + 20 IU/kg vitamin D3, Mn:Ala 1:0.75, oral, 3 h): 69.2 nmol/g
- Liver Mean Mn (Ex. 2 Group 7: 100 μmol/kg MnCl2 + 75 μmol/kg alanine + 10 IU/kg vitamin D3, Mn:Ala 1:0.75, oral, 3 h): 73.8 nmol/g
- Liver Mean Mn (Ex. 2 Group 8: 100 μmol/kg MnCl2 + 75 μmol/kg alanine + 5 IU/kg vitamin D3, Mn:Ala 1:0.75, oral, 3 h): 72.0 nmol/g
- Liver Mean Mn (Ex. 2 Group 9: 100 μmol/kg MnCl2 + 37.5 μmol/kg alanine + 20 IU/kg vitamin D3, Mn:Ala 1:0.375, oral, 3 h): 72.6 nmol/g
- Liver Mean Mn (Ex. 2 Group 10: 100 μmol/kg MnCl2 + 37.5 μmol/kg alanine + 10 IU/kg vitamin D3, Mn:Ala 1:0.375, oral, 3 h): 79.8 nmol/g
- Liver Mean Mn (Ex. 2 Group 11: 100 μmol/kg MnCl2 + 37.5 μmol/kg alanine + 5 IU/kg vitamin D3, Mn:Ala 1:0.375, oral, 3 h): 73.1 nmol/g
- Liver Mean Mn ([1]; Ex. 3 Group 2: 100 μmol/kg MnCl2 only, oral gavage): 114.0 nmol/g
- Liver Mean Mn ([1]; Ex. 3 Group 3: 50 μmol/kg MnCl2 + 100 μmol/kg alanine, no vitamin D3, Mn:Ala 1:2, oral): 95.3 nmol/g
- Liver Mean Mn ([1]; Ex. 3 Group 4: 100 μmol/kg MnCl2 + 200 μmol/kg alanine, no vitamin D3, Mn:Ala 1:2, oral): 110.3 nmol/g
- Liver Mean Mn ([1]; Ex. 3 Group 5: 100 μmol/kg MnCl2 + 50 μmol/kg alanine, no vitamin D3, Mn:Ala 1:0.5, oral): 128.8 nmol/g
- Liver Mean Mn ([1]; Ex. 3 Group 6: 100 μmol/kg MnCl2 + 25 μmol/kg alanine, no vitamin D3, Mn:Ala 1:0.25, oral): 115.9 nmol/g
- Liver Mean Mn ([1]; Ex. 3 Group 7: 100 μmol/kg MnCl2 + 50 μmol/kg alanine + 10 IU/kg vitamin D3, Mn:Ala 1:0.5, oral, 1 animal excluded since no Mn was taken up): 133.8 nmol/g
- Liver Mean Mn ([1]; Ex. 3 Group 8: 100 μmol/kg MnCl2 + 25 μmol/kg alanine + 10 IU/kg vitamin D3, Mn:Ala 1:0.25, oral): 117.8 nmol/g
- Liver Mean Mn ([2]; Ex. 1 Group 2: 100 μmol/kg MnCl2 only, oral gavage, liver 3 h after dose): 44.4 nmol/g
- Liver Mean Mn ([2]; Ex. 1 Group 3: 100 μmol/kg MnCl2 + 450 μmol/kg alanine + 60 IU/kg vitamin D3, Mn:Ala 1:4.5, oral, 3 h): 61.1 nmol/g
- Liver Mean Mn ([2]; Ex. 1 Group 4: 100 μmol/kg MnCl2 + 300 μmol/kg alanine + 60 IU/kg vitamin D3, Mn:Ala 1:3, oral, 3 h): 61.8 nmol/g
- Liver Mean Mn ([2]; Ex. 1 Group 5: 100 μmol/kg MnCl2 + 150 μmol/kg alanine + 60 IU/kg vitamin D3, Mn:Ala 1:1.5, oral, 3 h): 76.1 nmol/g
- Liver Mean Mn ([2]; Ex. 1 Group 6: 100 μmol/kg MnCl2 + 450 μmol/kg alanine + 40 IU/kg vitamin D3, Mn:Ala 1:4.5, oral, 3 h): 66.4 nmol/g
- Liver Mean Mn ([2]; Ex. 1 Group 7: 100 μmol/kg MnCl2 + 300 μmol/kg alanine + 40 IU/kg vitamin D3, Mn:Ala 1:3, oral, 3 h): 73.8 nmol/g
- Liver Mean Mn ([2]; Ex. 1 Group 8: 100 μmol/kg MnCl2 + 150 μmol/kg alanine + 40 IU/kg vitamin D3, Mn:Ala 1:1.5, oral, 3 h): 73.7 nmol/g
- Liver Mean Mn ([2]; Ex. 1 Group 9: 100 μmol/kg MnCl2 + 450 μmol/kg alanine + 20 IU/kg vitamin D3, Mn:Ala 1:4.5, oral, 3 h): 68.4 nmol/g
- Liver Mean Mn ([2]; Ex. 1 Group 10: 100 μmol/kg MnCl2 + 300 μmol/kg alanine + 20 IU/kg vitamin D3, Mn:Ala 1:3, oral, 3 h): 69.8 nmol/g
- Liver Mean Mn ([2]; Ex. 1 Group 11: 100 μmol/kg MnCl2 + 150 μmol/kg alanine + 20 IU/kg vitamin D3, Mn:Ala 1:1.5, oral, 3 h): 72.6 nmol/g
